Measured values from patent US20060094778A1, “Vesicant treatment with phenyl-phenyl type vitamin d receptor modulators” (published 2006).
Where “and” joins values, the source holds several entries; their conditions need not be identical. Equal entries are not always repeated.

Amino acid sequences for entries named in this document (tags omitted). Residues count along the entry.
UniProt P11473, 127-423 limits assumed: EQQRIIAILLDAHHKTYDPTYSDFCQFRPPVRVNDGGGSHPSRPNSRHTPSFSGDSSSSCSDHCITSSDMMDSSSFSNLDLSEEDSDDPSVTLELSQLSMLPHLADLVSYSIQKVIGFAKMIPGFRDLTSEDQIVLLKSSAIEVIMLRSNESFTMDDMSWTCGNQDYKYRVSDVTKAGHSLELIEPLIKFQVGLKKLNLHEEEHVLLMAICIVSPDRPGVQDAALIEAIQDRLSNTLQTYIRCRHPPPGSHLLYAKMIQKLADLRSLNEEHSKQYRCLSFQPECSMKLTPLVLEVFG

Columns and labels:
female DBF mice = assay: Mouse hypercalcemia assay; conditions: orally via gavage for 6 days; serum ionized calcium 6 hours after the last dosing; six day hypercalcemia test
VDR = VDR (Homo sapiens, UniProt P11473); assay: VDR CTF Caco-2 cell co-transfection assay; conditions: read-out: VDR EC50 (nM) (Caco-2 cells); Caco-2 cells transfected with pGal4-VDR-LBD and pFRLuc; luciferase; surrogate for in vivo calcemic activity
KERtr cells = assay: Keratinocyte proliferation assay; conditions: read-out: Kera. Prolif. IC50, 72 hr, BrdU incorporation
RXR-VDR heterodimer = RXR-VDR heterodimer (Homo sapiens, UniProt P11473); assay: RXR-VDR heterodimerization assay (SaOS-2 cells); conditions: read-out: RXR-VDR heterodimer EC50, Gal4-RXR-DEF, VP16-VDR-LBD and pFR-LUC reporter, luciferase

| Compound | Mouse Hypercal (female DBF mice) | EC50 (VDR) | IC50 (KERtr cells) | EC50 (RXR-VDR heterodimer) |
| --- | --- | --- | --- | --- |
| CCC(CC)(c1ccc(OCC(=O)C(C)(C)C)c(C)c1)c1ccc(OC[C@H](O)C(C)(C)C)c(C)c1 | 1000 µg/kg/day |  |  |  |
| CCC(CC)(c1ccc(OC(C)C(O)C(C)(C)C)c(C)c1)c1ccc(C(=O)O)c(C)c1 (racemic) |  | 72 nM | 240 nM | 171 nM and 337 nM |
| CCC(CC)(c1ccc(CCC(=O)C(C)(C)C)c(C)c1)c1ccc(C(=O)O)c(C)c1 | >3000 µg/kg/day |  |  | 396 nM |
| 1α,25-dihydroxyvitamin D3 | 0.06 µg/kg/day |  |  |  |
| CCC(CC)(c1ccc(CCC(=O)N(C)C)c(C)c1)c1ccc(OCC(=O)C(C)(C)C)c(C)c1 |  | 63 nM | 18 nM |  |
| CCC(CC)(c1ccc(CCC(=O)O)c(C)c1)c1ccc(OCC(=O)C(C)(C)C)c(C)c1 | 10 µg/kg/day | 300 nM | 2 nM |  |
| CCC(CC)(c1ccc(CCC(=O)N(C)C)c(C)c1)c1ccc(OCC(O)C(C)(C)C)c(C)c1 (stereo not drawn) | 100 µg/kg/day | 35 nM | 330 nM | 1 nM |
| CCC(CC)(c1ccc(OC[C@@H](O)C(C)(C)C)c(C)c1)c1ccc(C(=O)NCCS(C)(=O)=O)c(C)c1 | 3000 µg/kg/day |  |  |  |
| CCC(CC)(c1ccc(OCC(=O)C(C)(C)C)c(C)c1)c1ccc(C(=O)NCCS(C)(=O)=O)c(C)c1 | >5000 µg/kg/day |  |  |  |
| CCC(CC)(c1ccc(C(=O)O)cc1)c1ccc(OCC(O)C(C)(C)C)c(Cl)c1 (racemic) |  |  | 40 nM |  |
| CCC(CC)(c1ccc(OCC(O)C(C)(C)C)c(C)c1)c1ccc(C(=O)NC(C)(C)C(=O)O)c(C)c1 (single isomer, unassigned) | 300 µg/kg/day | 101 nM | 3 nM |  |
| CCC(CC)(c1ccc(OCC(O)C(C)(C)C)c(C)c1)c1ccc(C(=O)N[C@H](C)C(=O)O)c(C)c1 (stereo partly drawn) | <300 µg/kg/day | 303 nM | 25 nM |  |
| CCC(CC)(c1ccc(OCC(=O)C(C)(C)C)c(C)c1)c1ccc(C(=O)O)c(C)c1 | >3000 µg/kg/day | 990 nM | 1000 nM |  |
| CCC(CC)(c1ccc(CCC(O)C(C)(C)C)c(C)c1)c1ccc(C(=O)O)c(C)c1 (racemic) |  | 920 nM |  | 9 nM |
| CCC(CC)(c1ccc(/C=C/C(=O)N(C)C)c(C)c1)c1ccc(OCC(O)C(C)(C)C)c(C)c1 (stereo not drawn) |  | 4 nM |  | 4 nM |
| CCC(CC)(c1ccc(COCC(=O)O)c(C)c1)c1ccc(OCC(O)C(C)(C)C)c(C)c1 (single isomer, unassigned) | <300 µg/kg/day | 418 nM | 6 nM |  |
| CCC(CC)(c1ccc(CNCCS(C)(=O)=O)c(C)c1)c1ccc(OCC(=O)C(C)(C)C)c(C)c1 | 3000 µg/kg/day | 1010 nM |  | 22 nM and 30 nM |
| CCC(CC)(c1ccc(OC[C@@H](O)C(C)(C)C)c(C)c1)c1ccc(C(=O)NCC(=O)O)c(C)c1 |  | 368 nM |  | 3 nM |
| CCC(CC)(c1ccc(OCC(=O)C(C)(C)C)c(C)c1)c1ccc(OCC(=O)C(C)(C)C)c(C)c1 | 1000 µg/kg/day |  |  |  |
| CCC(CC)(c1ccc(OCC(O)C(C)(C)C)c(C)c1)c1ccc(C(=O)NS(C)(=O)=O)c(C)c1 (stereo not drawn) | 100 µg/kg/day | 3000 nM |  |  |
| CCC(CC)(c1ccc(OCC(O)CO)c(C)c1)c1ccc(OCC(O)C(C)(C)C)c(C)c1 (stereo not drawn) | 20 µg/kg/day |  |  |  |
| CCC(CC)(c1ccc(C(=O)O)c(C)c1)c1ccc(OCC(O)C(C)(C)C)c(Cl)c1 (racemic) |  | 863 nM |  | 266 nM and 137 nM |
| CCC(CC)(c1ccc(OCC(O)C(C)(C)C)c(C)c1)c1ccc(C(=O)O)c(Cl)c1 (racemic) |  | 979 nM | 508 nM | 302 nM and 204 nM |
| CCC(CC)(c1ccc(C(=O)O)cc1)c1ccc(OCC(=O)C(C)(C)C)c(C)c1 | 6000 µg/kg/day | 935 nM |  |  |
